Earlier results, collected in publication PMC8893328.

Chains of the proteins cited; added tags and fusions are not shown. Residues count along the entry.
UniProt P01589, 22-240, chain 1 of 3: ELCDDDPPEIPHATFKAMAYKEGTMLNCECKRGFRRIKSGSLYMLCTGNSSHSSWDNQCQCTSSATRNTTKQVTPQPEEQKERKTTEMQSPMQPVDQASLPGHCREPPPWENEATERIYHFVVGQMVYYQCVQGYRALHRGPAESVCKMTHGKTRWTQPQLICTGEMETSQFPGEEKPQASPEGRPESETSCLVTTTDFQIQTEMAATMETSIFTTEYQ
UniProt P60568, 21-153: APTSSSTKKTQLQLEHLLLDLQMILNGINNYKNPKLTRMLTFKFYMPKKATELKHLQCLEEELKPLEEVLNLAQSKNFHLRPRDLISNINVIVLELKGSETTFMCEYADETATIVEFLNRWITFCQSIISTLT

Target: IL2R heterotrimeric receptor (Homo sapiens) (UniProt P01589)

pKd: 11.00
Substance: IL2 (from UniProt P60568)

pKd: −log10 of the molar value.
